## Permeability data for macrocyclic peptides

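The data file gives no further conditions (lipid, pH, time, direction or concentration), and values from different papers need not be comparable. The list need not hold all peptides of the study. Peptides that the database sets to -10, its floor, are left out.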

PAMPA measures passive passage through an artificial lipid membrane. Permeability is given as log10 of P in cm/s; higher (less negative) is more permeable.

CC[C@H]1NC(=O)[C@@H](NC(=O)[C@@H](CC(C)C)N(C)C(=O)[C@@H]2CCCN2C(C)=O)[C@@H](C)OC(=O)[C@@H]2CCCN2C(=O)[C@H](CC(C)C)NC(=O)[C@@H](C)N(C)C(=O)[C@@H](Cc2ccccc2)NC(=O)[C@H](CCc2ccccc2)NC1=O is reported with PAMPA -5.53 (log10 cm/s).
CCC[C@@H]1NC(=O)[C@@H](Cc2ccc(F)cc2)NC(=O)[C@@H](NC(=O)[C@@H](CC(C)C)N(C)C(=O)[C@@H]2CCCN2C(C)=O)[C@@H](C)OC(=O)[C@@H]2CCCN2C(=O)[C@H](CC(C)C)NC(=O)[C@@H](C)N(C)C(=O)[C@@H](Cc2ccccc2)NC1=O is reported with PAMPA -5.54 (log10 cm/s).
CC[C@@H]1NC(=O)[C@@H](CC)NC(=O)[C@@H](NC(=O)[C@@H](CC(C)C)N(C)C(=O)[C@@H]2CCCN2C(C)=O)[C@@H](C)OC(=O)[C@@H]2CCCN2C(=O)[C@H](CC(C)C)NC(=O)[C@@H](C)N(C)C(=O)[C@@H](Cc2ccc(F)c(F)c2)NC1=O is reported with PAMPA -6.56 (log10 cm/s).
CC[C@H]1NC(=O)[C@@H](NC(=O)[C@@H](CC(C)C)N(C)C(=O)[C@@H]2CCCN2C(C)=O)[C@@H](C)OC(=O)[C@@H]2CCCN2C(=O)[C@H](CC(C)C)NC(=O)[C@@H](C)N(C)C(=O)[C@@H](Cc2ccc(F)c(F)c2)NC(=O)[C@H](Cc2ccc(OC)cc2)NC1=O is reported with PAMPA -5.75 (log10 cm/s).
CC(=O)N1CCC[C@H]1C(=O)N[C@@H]1C(=O)N(C)[C@H](CC(C)C)C(=O)N(C)[C@@H](CC(C)C)C(=O)N[C@@H](CC(C)C)C(=O)N(C)[C@H](CC(C)C)C(=O)N(C)[C@H](C)C(=O)N[C@@H](CC(C)C)C(=O)N2CCC[C@@H]2C(=O)O[C@@H]1C is reported with PAMPA -6.01 (log10 cm/s).
CCC[C@H]1NC(=O)[C@H](CC)NC(=O)[C@@H](CC2CCCCC2)NC(=O)[C@@H](NC(=O)[C@@H](CC(C)C)N(C)C(=O)[C@@H]2CCCN2C(C)=O)[C@@H](C)OC(=O)[C@@H]2CCCN2C(=O)[C@H](CC(C)C)NC(=O)[C@@H](C)N(C)C1=O is reported with PAMPA -5.72 (log10 cm/s).
CC(=O)N[C@@H]1C(=O)N2CCC[C@H]2C(=O)N(C)[C@H](CC(C)C)C(=O)N[C@H](CC(C)C)C(=O)N(C)[C@H](CC(C)C)C(=O)N[C@H](CC(C)C)C(=O)N[C@@H](C)C(=O)N[C@@H](CC(C)C)C(=O)N2CCC[C@@H]2C(=O)O[C@@H]1C is reported with PAMPA -6.13 (log10 cm/s).
CC(=O)N[C@@H]1C(=O)N2CCC[C@H]2C(=O)N(C)[C@H](CC(C)C)C(=O)N[C@@H](CC(C)C)C(=O)N(C)[C@@H](CC(C)C)C(=O)N[C@@H](CC(C)C)C(=O)N[C@@H](C)C(=O)N[C@@H](CC(C)C)C(=O)N2CCC[C@@H]2C(=O)O[C@@H]1C is reported with PAMPA -6.31 (log10 cm/s).
CC[C@H]1NC(=O)[C@@H](NC(=O)[C@@H](CC(C)C)N(C)C(=O)[C@@H]2CCCN2C(C)=O)[C@@H](C)OC(=O)[C@@H]2CCCN2C(=O)[C@H](CC(C)C)NC(=O)[C@@H](C)N(C)C(=O)[C@@H](Cc2cccc3ccccc23)NC(=O)[C@H](Cc2ccccc2)NC1=O is reported with PAMPA -5.47 (log10 cm/s).
CC[C@@H]1NC(=O)[C@@H](Cc2ccccc2)NC(=O)[C@@H](NC(=O)[C@@H](CC(C)C)N(C)C(=O)[C@@H]2CCCN2C(C)=O)[C@@H](C)OC(=O)[C@@H]2CCCN2C(=O)[C@H](CC(C)C)NC(=O)[C@@H](C)N(C)C(=O)[C@@H](CC2CCCCC2)NC1=O is reported with PAMPA -5.59 (log10 cm/s).
CC(=O)N1CCC[C@H]1C(=O)N[C@@H]1C(=O)N(C)[C@H](CC(C)C)C(=O)N[C@@H](CC(C)C)C(=O)N(C)[C@H](CC(C)C)C(=O)N(C)[C@@H](CC(C)C)C(=O)N(C)[C@H](C)C(=O)N[C@@H](CC(C)C)C(=O)N2CCC[C@@H]2C(=O)O[C@@H]1C is reported with PAMPA -5.40 (log10 cm/s).
CCC[C@H]1NC(=O)[C@@H](NC(=O)[C@@H](CC(C)C)N(C)C(=O)[C@@H]2CCCN2C(C)=O)[C@@H](C)OC(=O)[C@@H]2CCCN2C(=O)[C@H](CC(C)C)NC(=O)[C@@H](C)N(C)C(=O)[C@@H](Cc2cccc3ccccc23)NC(=O)[C@H](CCc2ccccc2)NC1=O is reported with PAMPA -6.16 (log10 cm/s).
CC(=O)N1CCC[C@H]1C(=O)N(C)[C@H](CC(C)C)C(=O)N[C@@H]1C(=O)N[C@H](Cc2ccc(F)cc2)C(=O)N[C@@H](CCc2ccccc2)C(=O)N[C@H](Cc2ccc(F)c(F)c2)C(=O)N(C)[C@H](C)C(=O)N[C@@H](CC(C)C)C(=O)N2CCC[C@H]2C(=O)O[C@@H]1C is reported with PAMPA -5.98 (log10 cm/s).
CC(=O)N1CCC[C@H]1C(=O)N[C@@H]1C(=O)N(C)[C@H](CC(C)C)C(=O)N(C)[C@@H](CC(C)C)C(=O)N[C@H](CC(C)C)C(=O)N(C)[C@H](CC(C)C)C(=O)N[C@H](C)C(=O)N[C@@H](CC(C)C)C(=O)N2CCC[C@@H]2C(=O)O[C@@H]1C is reported with PAMPA -5.07 (log10 cm/s).
CC(=O)N[C@@H]1C(=O)N2CCC[C@H]2C(=O)N(C)[C@H](CC(C)C)C(=O)N(C)[C@@H](CC(C)C)C(=O)N(C)[C@@H](CC(C)C)C(=O)N(C)[C@H](CC(C)C)C(=O)N[C@@H](C)C(=O)N[C@@H](CC(C)C)C(=O)N2CCC[C@@H]2C(=O)O[C@@H]1C is reported with PAMPA -5.06 (log10 cm/s).
CC(=O)N1CCC[C@H]1C(=O)N[C@@H]1C(=O)N[C@H](CC(C)C)C(=O)N[C@H](CC(C)C)C(=O)N(C)[C@H](CC(C)C)C(=O)N(C)[C@H](CC(C)C)C(=O)N[C@@H](C)C(=O)N[C@@H](CC(C)C)C(=O)N2CCC[C@@H]2C(=O)O[C@@H]1C is reported with PAMPA -5.93 (log10 cm/s).
CC(=O)N1CCC[C@H]1C(=O)N(C)[C@H](CC(C)C)C(=O)N[C@@H]1C(=O)N[C@H](Cc2ccccc2)C(=O)N[C@@H](Cc2ccccc2)C(=O)N[C@H](CC2CCCCC2)C(=O)N(C)[C@H](C)C(=O)N[C@@H](CC(C)C)C(=O)N2CCC[C@H]2C(=O)O[C@@H]1C is reported with PAMPA -5.37 (log10 cm/s).
CCC[C@H]1NC(=O)[C@@H](NC(=O)[C@@H](CC(C)C)N(C)C(=O)[C@@H]2CCCN2C(C)=O)[C@@H](C)OC(=O)[C@@H]2CCCN2C(=O)[C@H](CC(C)C)NC(=O)[C@@H](C)N(C)C(=O)[C@@H](Cc2cccc3ccccc23)NC(=O)[C@H](CC(C)C)NC1=O is reported with PAMPA -5.14 (log10 cm/s).
CC(=O)N1CCC[C@H]1C(=O)N[C@@H]1C(=O)N[C@H](CC(C)C)C(=O)N(C)[C@H](CC(C)C)C(=O)N[C@@H](CC(C)C)C(=O)N[C@H](CC(C)C)C(=O)N[C@@H](C)C(=O)N[C@@H](CC(C)C)C(=O)N2CCC[C@@H]2C(=O)O[C@@H]1C is reported with PAMPA -5.21 (log10 cm/s).

Excerpt, the opening 2 entries:

| compound | PAMPA (log10 cm/s) |
|---|---|
| CC[C@H]1NC(=O)[C@@H](NC(=O)[C@@H](CC(C)C)N(C)C(=O)[C@@H]2CCCN2C(C)=O)[C@@H](C)OC(=O)[C@@H]2CCCN2C(=O)[C@H](CC(C)C)NC(=O)[C@@H](C)N(C)C(=O)[C@@H](Cc2ccccc2)NC(=O)[C@H](CCc2ccccc2)NC1=O | -5.53 |
| CCC[C@@H]1NC(=O)[C@@H](Cc2ccc(F)cc2)NC(=O)[C@@H](NC(=O)[C@@H](CC(C)C)N(C)C(=O)[C@@H]2CCCN2C(C)=O)[C@@H](C)OC(=O)[C@@H]2CCCN2C(=O)[C@H](CC(C)C)NC(=O)[C@@H](C)N(C)C(=O)[C@@H](Cc2ccccc2)NC1=O | -5.54 |

Data: CycPeptMPDB; original report Kelly et al. 2021, doi:10.1021/jacs.0c06115.